{"source": "patent US20230220206A1", "about": "“REJUVENATING AGENTS FOR ASPHALT RECYCLING” (BASF SE, priority 2020, published 2023)", "key": {"[1]": {"test": "MSCR test, percentage elastic recovery", "format": "physicochemical", "conditions": "bitumen 20/30 + 5% compound"}, "[2]": {"test": "Softening point ring & ball of rejuvenated bitumen", "conditions": "bitumen 20/30 rejuvenated with 5% of the compound, 180° C., 30 minutes"}}}
{"substance": "Dodecenyl succinic acid anhydride", "values": [{"measurement": "MSCR % Rec. (0.1 kPa)", "setting": "[1]; 0.1 kPa", "result": 10, "unit": "%"}, {"measurement": "MSCR % Rec. (1.6 kPa)", "setting": "[1]; 1.6 kPa", "result": 4, "unit": "%"}, {"measurement": "MSCR % Rec. (3.2 kPa)", "setting": "[1]; 3.2 kPa", "result": 2, "unit": "%"}, {"measurement": "SP [° C.] (softening point)", "setting": "[2]", "result": 51.0, "unit": "°C"}]}
